# Article PMC3142112, “Rationally Designed Turn Promoting Mutation in the Amyloid-β Peptide Sequence Stabilizes Oligomers in Solution” (PLoS ONE, 2011)
# Details: pH 7.2
compound,measurement,value
CCCC[C@H](NC(=O)[C@H](CC(C)C)NC(=O)CNC(=O)[C@@H](NC(=O)[C@@H](NC(=O)[C@H](C)NC(=O)CNC(=O)[C@H](CCCCN)NC(=O)[C@H](CC(N)=O)NC(=O)[C@H](CO)NC(=O)CNC(=O)[C@@H](NC(=O)[C@H](CC(=O)O)NC(=O)[C@H](CCC(=O)O)NC(=O)[C@H](C)NC(=O)[C@H](Cc1ccccc1)NC(=O)[C@H](Cc1ccccc1)NC(=O)[C@@H](NC(=O)[C@H](CC(C)C)NC(=O)[C@H](CCCCN)NC(=O)[C@H](CCC(N)=O)NC(=O)[C@H](Cc1c[nH]cn1)NC(=O)[C@H](Cc1c[nH]cn1)NC(=O)[C@@H](NC(=O)[C@H](CCC(=O)O)NC(=O)[C@H](Cc1ccc(O)cc1)NC(=O)CNC(=O)[C@H](CO)NC(=O)[C@H](CC(=O)O)NC(=O)[C@H](Cc1c[nH]cn1)NC(=O)[C@H](CCCNC(=N)N)NC(=O)[C@H](Cc1ccccc1)NC(=O)[C@H](CCC(=O)O)NC(=O)[C@H](C)NC(=O)[C@@H](N)CC(=O)O)C(C)C)C(C)C)C(C)C)[C@@H](C)CC)[C@@H](C)CC)C(=O)N[C@H](C(=O)N1CCC[C@@H]1C(=O)NCC(=O)N[C@H](C(=O)N[C@H](C(=O)N[C@H](C(=O)N[C@@H](C)C(=O)O)[C@@H](C)CC)C(C)C)C(C)C)C(C)C [Aβ42Nle35p37],solubility when HFIP film was dissolved,~1 mg/mL
